Literature values, collected in patent publication US20220265723A1, “NON-VIRAL MODIFICATION OF MESENCHYMAL STEM CELLS” (NATIONAL UNIVERSITY OF SINGAPORE, priority 2019, published 2022).

System: prodrug-activating enzyme of each system: CA, CD, CPG2, Cyt-450, dCK, HSV-TK, NR, PNP, TP, VZV-TK
Details: systems: CA/CPT-11, CD/5-FC, CPG2/CMDA, Cyt-450/CP, IF, dCK/ara-C, HSV-TK/GCV, ACV, NR/CB1954, PNP/6-MePdR, TP/5′-DFUR, VZV-TK/ara-M; read-out: KM (S0.5); cited from earlier work

Structure (SMILES): Nc1nc(O)c2ncn(COC(CO)CO)c2n1 [GCV, ganciclovir]
- Km: 11 to 15.8 µM
